# Assay: Pharmacokinetic evaluation in rats
# Format: in vivo, SD rats
smiles,measurement,setting,value
"Cc1cc(Cn2ncn(-c3ccc(OC(F)(F)F)cc3)c2=O)cc(C)c1OC(C)(C)C(=O)O [Compound 61, 2-(2,6-Dimethyl-4-((5-oxo-4-(4-(trifluoromethoxy)phenyl)-4,5-dihydro-1H-1,2,4-triazo 1-1-yl)methyl)phenoxy)-2-methylpropionic acid]",pharmacokinetic properties (in words),,good pharmacokinetic properties
same,Half-life T1/2,"intravenous injection, 2 mpk",6.78 ± 0.60 h
same,Half-life T1/2,"oral administration, 10 mpk",5.11 ± 0.31 h
